The subject of assay [1] is Fentanyl-induced analgesia in rats. In words: Fentanyl-induced analgesia, tail flick.
The test system of assay [2] is respiratory depressant effects of Fentanyl in rats. In words: Blockade of the respiratory depressant effects of fentanyl.
Assay [3] concerns Fentanyl-induced lateral recumbency in rats.

The structures appear in SMILES notation.

On to `CCC(=O)NC1CC(C)N(CCc2ccccc2)CC1C` (stereo not drawn) [VDM-001, N-[2,5-dimethyl-1-(2-phenylethyl)piperidin-4-yl]propanamide], for which the “blockade of fentanyl-induced analgesia (tail flick reaction time)” value in assay [1] was “blocks fentanyl-induced analgesia”. In assay [1] (intraperitoneal 20, 30, or 40 mg/kg), the “time for which Fentanyl induced analgesia was modified” value is given as “up to 30 minutes post dose”. Also, in assay [2], the “blockade of fentanyl effect on minute volume” value was “full blockade”, the “blockade of fentanyl effect on respiratory rate” value is given as “partial blockade” and the “blockade of fentanyl effect on tidal volume” value is reported as “partial blockade”.

With `C=CCN1CC[C@]23c4c5ccc(O)c4O[C@H]2C(=O)CC[C@@]3(O)[C@H]1C5` [naloxone, 17-allyl-4,5a-epoxy-3,14-dihydroxymorphinan-6-one, reference compound], the “time that rats were recumbent after fentanyl dosing” value in assay [3] was “significantly reduce the time that rats were recumbent”.
